Experimental findings from patent US20260174739A1 (priority 2022, published 2026) are described below.

By UniProt entry, the sequences of proteins in these tests, tags left out.
UniProt Q01959, whole entry: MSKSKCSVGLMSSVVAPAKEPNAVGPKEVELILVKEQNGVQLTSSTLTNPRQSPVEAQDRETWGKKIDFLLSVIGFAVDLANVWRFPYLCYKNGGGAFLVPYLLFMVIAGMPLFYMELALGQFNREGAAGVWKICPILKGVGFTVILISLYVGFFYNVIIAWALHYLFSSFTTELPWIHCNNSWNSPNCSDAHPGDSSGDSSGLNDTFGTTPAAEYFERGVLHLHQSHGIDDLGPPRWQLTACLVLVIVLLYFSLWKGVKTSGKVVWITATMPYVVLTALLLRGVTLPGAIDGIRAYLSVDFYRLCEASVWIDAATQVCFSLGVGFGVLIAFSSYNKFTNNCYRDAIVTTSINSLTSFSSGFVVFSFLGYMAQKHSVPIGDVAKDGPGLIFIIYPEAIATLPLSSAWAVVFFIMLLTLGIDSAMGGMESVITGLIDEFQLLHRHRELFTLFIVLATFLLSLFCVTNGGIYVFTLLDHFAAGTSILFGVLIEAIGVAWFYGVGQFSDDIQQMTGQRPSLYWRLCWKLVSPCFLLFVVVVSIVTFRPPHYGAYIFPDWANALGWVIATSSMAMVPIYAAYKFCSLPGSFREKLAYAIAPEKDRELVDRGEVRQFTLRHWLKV

The IC50 is the midpoint of a concentration-inhibition curve. High values mean weaker potency, low ones greater potency.

Structures are written as SMILES.

The target of the assay is human DAT (Homo sapiens, UniProt Q01959). The assay can be described thus: DAT transporter inhibitory activity test (neurotransmitter transporter uptake assay kit). In kind it is cell-based. The note with it: DAT stably transfected HEK cells. The protocol: Transporter inhibition of human DAT and NET expressed in HEK-293 cells was assessed using a neurotransmitter transporter uptake assay kit. […] The specific procedures were as follows:
DAT stably transfected culture: The DAT-HEK cell line was cultured in DMEM medium containing 10% fetal bovine serum and 0.2 mg/mL hygromycin B at 37° C. with 5% carbon dioxide.
DAT stably transfected cell passage: the old medium was removed, and the cells were washed once with PBS; 1 mL of TrypLE™ Express solution was then added, and the cells were incubated at 37° C. for about 2 min. When the cells were detached from the bottom of the dish, about 5 mL of complete medium pre-heated at 37° C. was added. The cell suspension was gently pipetted to separate the aggregated cells. The cell suspension was transferred to a sterile centrifuge tube and centrifuged at 1000 rpm for 5 min. […]
• a) After overnight transfection of NET cells, the cells were digested with trypsin, resuspended with DMEM+10% Dialyzed FBS medium, seeded into a 384-well plate at 20000 cells/well, and incubated overnight. […] After centrifuging, the plate was incubated at 37° C. for 60 min. • f) After incubation, the reading at 510 nm under the excitation of the detection wavelength of 425 nm was measured using a microplate reader. […]

`N[C@@]1(c2ccccc2)CCc2ccsc2C1` [S-A19] came in with an IC50 of 2200 nM.
